Values of other authors in patent US6245563A, “Enhanced activation of natural killer cells using an NK cell activator and hydrogen peroxide scavenger or inhibitor” (priority 2000, dated 2001).

What was measured:
[1] = test system: NK cells; settings: cited from earlier work
[2] = test system: human neoplasia; settings: cited from earlier work
[3] = test system: established tumors; settings: several animal tumor models; cited from earlier work

Substance | effect on NK cell activity/cytotoxicity [1] | NK cell cytotoxicity in the presence of monocytes, combined with histamine or serotonin ([1]; IL-2 combined with histamine or serotonin, in vitro) | clinical anti-tumor outcome ([2]; high doses) | side effects / toxic reactions in patients ([2]; human, in vivo) | regression of established tumors [3]
IFN-β: interferon-β | enhance NK cell cytotoxicity | – | – | – | –
IL-2: a T-cell-derived cytokine | activates many NK-cell functions | augments NK cell cytotoxicity in the presence of monocytes in vitro | Only a small fraction of patients with metastatic melanoma or renal cell carcinoma show objective regression of tumor burden | severe side effects, including hypotension, fluid retention | can induce the regression of established tumors in several animal tumor models in vivo
